From US20240011027A1, “METHODS AND COMPOSITIONS FOR RESTORING STMN2 LEVELS” (President and Fellows of Harvard College, priority 2020, published 2024)
Where a SMILES comes first, the peptide text is derived from it. The star is where a group is joined. Cbz = O=C(OCc1ccccc1)*

Test system: motor neurons
Experiment: Cell Titer Glo neuronal survival with MG-132
Conditions: indicated concentrations and times

Structure (SMILES): CC(C)C[C@@H](C=O)NC(=O)[C@H](CC(C)C)NC(=O)[C@H](CC(C)C)NC(=O)OCc1ccccc1 [MG-132] (Cbz-Leu-Leu-Leu-aldehyde)
- neuronal survival (viability): viable after 1 day of treatment at all the concentrations tested
